From article PMC5381194, “On-chip in vitro cell-network pre-clinical cardiac toxicity using spatiotemporal human cardiomyocyte measurement on a chip” (Scientific Reports, 2014)

Tested on: human embryonic stem cell-derived cardiomyocyte cluster (hES-CMC)
Experiment: On-chip MEA field potential recording of hCM clusters (temporal FPD and STVFPD)
Details: 10 μM (Ref. dose ca. 10^2 × CMAX), ratio against the control, mean ± S.E.

## NC(N)=Nc1nc(CSCCC(N)=NS(N)(=O)=O)cs1 [Famotidine]
  FPD (ratio): 1.02 ± 0.02 ratio
  STVFPD (ratio): 1.03 ± 0.09 ratio
